{
  "source": "patent US8658604B2",
  "about": "“Template-fixed beta-hairpin peptidomimetics with protease inhibitory activity” (Polyphor Ltd, priority 2005, dated 2014)",
  "origin": "cited, not measured here",
  "tested_on": "elastase",
  "conditions": "cited from earlier work",
  "note": "pKi: −log10 of the molar value.",
  "data": [
    {"molecule": "CC[C@H](C)[C@@H]1NC(=O)[C@@H]2CCCN2C(=O)[C@@H]2CCCN2C(=O)[C@H]([C@@H](C)CC)NC(=O)[C@H](CO)NC(=O)[C@H](CCCCN)NC(=O)[C@H]([C@@H](C)O)NC(=O)[C@@H]2CSSC[C@H](NC1=O)C(=O)N[C@@H](Cc1ccccc1)C(=O)N1CCC[C@H]1C(=O)N[C@@H](CC(=O)O)C(=O)NCC(=O)N[C@@H](CCCNC(=N)N)C(=O)N2", "values": [
      {"measurement": "pKi", "result": 3.98}
    ]}
  ]
}
